Source: patent publication US20260022143A1, “Cyclic Peptide Inhibitors of IL-23” (JANSSEN PHARMACEUTICA NV, priority 2022, published 2026)

The compounds below were run against T1, IL-23R (Homo sapiens, UniProt Q5VWK5) (assay: IL23R Reporter Assay). Details: HEK293 cells containing IL-23R, IL-12RP1 and STAT-inducible firefly luciferase reporter; 10 ng/mL IL-23 (EC90); 5 h at 37° C.; read-out: IL23R Reporter Assay.
T1 construct: host or cells: HEK293
T1 sequence (Q5VWK5 24-629): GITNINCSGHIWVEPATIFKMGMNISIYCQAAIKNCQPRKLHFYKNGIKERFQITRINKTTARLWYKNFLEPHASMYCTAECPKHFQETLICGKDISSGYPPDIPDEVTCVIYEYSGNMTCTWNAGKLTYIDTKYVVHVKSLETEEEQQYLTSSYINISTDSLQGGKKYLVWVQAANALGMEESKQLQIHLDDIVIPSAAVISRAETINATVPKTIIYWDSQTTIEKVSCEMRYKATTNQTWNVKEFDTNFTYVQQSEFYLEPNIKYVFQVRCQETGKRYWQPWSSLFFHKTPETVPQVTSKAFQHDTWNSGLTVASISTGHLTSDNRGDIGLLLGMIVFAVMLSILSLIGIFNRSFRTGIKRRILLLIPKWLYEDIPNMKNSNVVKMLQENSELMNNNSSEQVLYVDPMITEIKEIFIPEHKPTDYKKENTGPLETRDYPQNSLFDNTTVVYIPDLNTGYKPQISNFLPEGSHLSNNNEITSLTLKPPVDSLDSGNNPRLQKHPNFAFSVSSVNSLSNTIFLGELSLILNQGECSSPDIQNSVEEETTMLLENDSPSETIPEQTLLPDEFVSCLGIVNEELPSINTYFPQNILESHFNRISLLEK
Assay type: cell-based

Row | IC50 | SMILES
1 | 2.5 nM | CC(=O)N(C)CCCC[C@H](NC(=O)C1(NC(=O)[C@H](Cc2ccc3ccccc3c2)NC(=O)[C@H](Cc2ccc(OCCN)cc2)NC(=O)[C@H]2NC(=O)[C@H](CCC(=O)N(C)C)NC(=O)[C@H](Cc3c[nH]c4c(C)cccc34)NC(=O)[C@H]([C@@H](C)O)NC(=O)[C@H](CC(N)=O)NC(=O)[C@@H](NC(=O)CCOCCOCC[N+](C)(C)C)C(C)(C)SSC2(C)C)CCOCC1)C(=O)N[C@@H](CC(N)=O)C(=O)N[C@@H](Cc1cccnc1)C(=O)N(C)CC(N)=O [compound 168, cPEG3aCO-Pen(3)-N-T-7MeW-Q(N(Me)2)-Pen(3)-AEF-2Nal-THP-K(NMeAc)-N-3Pya-Sar-CONH2]
2 | 2.3 nM | CC(=O)N(C)CCCC[C@@H]1NC(=O)[C@H](Cc2c[nH]c3c(C)cccc23)NC(=O)[C@H]([C@@H](C)O)NC(=O)[C@H](CC(=O)N(C)C)NC(=O)[C@@H](NC(=O)CCOCCOCC[N+](C)(C)C)C(C)(C)SSC(C)(C)[C@@H](C(=O)N[C@@H](Cc2ccc(OCCN)cc2)C(=O)N[C@@H](Cc2ccc3ccccc3c2)C(=O)NC2(C(=O)N[C@@H](CCCCN(C)C(C)=O)C(=O)N[C@@H](CC(N)=O)C(=O)N[C@@H](Cc3cccnc3)C(=O)N(C)CC(N)=O)CCOCC2)NC1=O [compound 169, cPEG3aCO-Pen(3)-N(N(Me)2)-T-7MeW-K(NMeAc)-Pen(3)-AEF-2Nal-THP-K(NMeAc)-N-3Pya-Sar-CONH2]
3 | 1.7 nM | CC(=O)N[C@@H]1C(=O)N[C@@H](CC(=O)N(C)C)C(=O)N[C@@H]([C@@H](C)O)C(=O)N[C@@H](Cc2c[nH]c3c(C)cccc23)C(=O)N[C@@H](CCCCN(C)C(C)=O)C(=O)N[C@H](C(=O)N[C@@H](Cc2ccc(OCCN)cc2)C(=O)N[C@@H](Cc2ccc3ccccc3c2)C(=O)NC2(C(=O)N[C@@H](CCCCN(C)C(C)=O)C(=O)N[C@@H](CC(N)=O)C(=O)N[C@@H](Cc3cccnc3)C(=O)N(C)CC(N)=O)CCOCC2)C(C)(C)SSC1(C)C [compound 182, MeCO-Pen(3)-N(N(Me)2)-T-7MeW-K(NMeAc)-Pen(3)-AEF-2Nal-THP-K(NMeAc)-N-3Pya-Sar-CONH2]
4 | 2.2 nM | CC(=O)N[C@@H]1C(=O)N[C@@H](CC(=O)N(C)C)C(=O)N[C@@H]([C@@H](C)O)C(=O)N[C@@H](Cc2c[nH]c3c(C)cccc23)C(=O)N[C@@H](CCCCN(C)C(C)=O)C(=O)N[C@H](C(=O)N[C@@H](Cc2ccc(OCCCCC[N+](C)(C)C)cc2)C(=O)N[C@@H](Cc2ccc3ccccc3c2)C(=O)NC2(C(=O)N[C@@H](CCCCN(C)C(C)=O)C(=O)N[C@@H](CC(N)=O)C(=O)N[C@@H](Cc3cccnc3)C(=O)N(C)CC(=O)N(C)C)CCOCC2)C(C)(C)SSC1(C)C [compound 190, MeCO-Pen(3)-N(N(Me)2)-T-7MeW-K(NMeAc)-Pen(3)-TMAPF-2Nal-THP-K(NMeAc)-N-3Pya-Sar-CON(Me)2]
5 | 2.9 nM | CC(=O)NCCCC[C@@H]1NC(=O)[C@H](Cc2c[nH]c3c(C)cccc23)NC(=O)[C@H]([C@@H](C)O)NC(=O)[C@H](CC(N)=O)NC(=O)[C@@H](NC(=O)CCOCCOCC[N+](C)(C)C)C(C)(C)SSC(C)(C)[C@@H](C(=O)N[C@@H](Cc2ccc(OCCOCCOCC[N+](C)(C)C)cc2)C(=O)N[C@@H](Cc2ccc3ccccc3c2)C(=O)NC2(C(=O)N[C@@H](CCCCNC(C)=O)C(=O)N[C@@H](CC(N)=O)C(=O)N[C@@H](Cc3cccnc3)C(=O)N(C)CC(N)=O)CCOCC2)NC1=O [compound 195, cPEG3aCO-Pen(3)-N-T-7MeW-K(Ac)-Pen(3)-APEG3F-2Nal-THP-K(Ac)-N-3Pya-Sar-CONH2]
6 | 3.9 nM | CC(=O)N(C)CC[C@H](NC(=O)C1(NC(=O)[C@H](Cc2ccc3ccccc3c2)NC(=O)[C@H](Cc2ccc(OCCN)cc2)NC(=O)[C@H]2NC(=O)[C@H](CCN(C)C(=O)CCOCCOCC[N+](C)(C)C)NC(=O)[C@H](Cc3c[nH]c4c(C)cccc34)NC(=O)[C@H]([C@@H](C)O)NC(=O)[C@H](CC(=O)N(C)C)NC(=O)[C@@H](NC(=O)CCOCCOCC[N+](C)(C)C)C(C)(C)SSC2(C)C)CCOCC1)C(=O)N[C@@H](CC(N)=O)C(=O)N[C@@H](Cc1cccnc1)C(=O)N(C)CC(=O)N(C)C [compound 196, cPEG3aCO-Pen(3)-N(N(Me)2)-T-7MeW-Dab(NMecPEG3a)-Pen(3)-AEF-2Nal-THP-Dab(NMeAc)-N-3Pya-Sar-CON(Me)2]
